The test deals with human MOR-1 variants. Particulars: all human variants.

For `CN(C(=O)Cc1ccc(Cl)c(Cl)c1)[C@@H]1CCCC[C@H]1N1CCCC1`, the “competition of [3H]DAMGO binding (in words)” value was “inactive”.

The values above are taken from patent publication US7585941B2 (priority 2004, dated 2009).
